In experiment [1] the target is T1, Thrombin from human plasma (Homo sapiens, UniProt P00734).
T1 construct: Thrombin, a multifunctional serine protease generated by prothrombin cleavage; purchased Sigma-Aldrich Chemical Co. (St. Louis, MO, USA) T6884; host or cells: human plasma
As to the kind of experiment: SPR binding affinity measurement (Biacore T200, thrombin-immobilized CM5 chip). The following applies: Table 2. (In general: In SPR one partner is held on a chip, and binding of the other changes the refractive index at the surface.)

In a further experiment the target is T2, thrombin (Homo sapiens, UniProt P00734).
T2 construct: Thrombin, a multifunctional serine protease generated by prothrombin cleavage; purchased AnaSpec, Inc., San Jose, CA
As to the kind of experiment: Thrombin inhibition assay (SensoLyte 520 FRET substrate kit). In kind it is biochemical. Particulars: 0.13 μg/ml thrombin, 1 hour at 37 °C.

This note sets out measurements from paper PMC5343495 (Scientific Reports, 2017).

A word on the Kd: it is the free concentration of one partner at which half of the binding sites on the other are occupied at equilibrium, for simple one-to-one binding. A high value points to a looser complex. One may read the IC50 as the concentration that inhibits the measured activity by half.

For `CC1CNc2c(cccc2S(=O)(=O)N[C@@H](CCCNC(=N)N)C(=O)N2CC[C@@H](C)C[C@@H]2C(=O)O)C1` (some centres unmarked) [Argatroban, reference compound], in experiment [1], the dissociation constant Kd is 53.8 µM. Moreover, the IC50 at thrombin is 0.0157 µM.
